Results taken from patent US20100015650.

Target: T1, BRB1 tyrosine kinase substrate peptide
T1 chain: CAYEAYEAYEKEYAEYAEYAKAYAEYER

B1: LCK (protein)
chain: MGCGCSSHPEDDWMENIDVCENCHYPIVPLDGKGTLLIRNGSEVRDPLVTYEGSNPPASPLQDNLVIALHSYEPSHDGDLGFEKGEQLRILEQSGEWWKAQSLTTGQEGFIPFNFVAKANSLEPEPWFFKNLSRKDAERQLLAPGNTHGSFLIRESESTAGSFSLSVRDFDQNQGEVVKHYKIRNLDNGGFYISPRITFPGLHELVRHYTNASDGLCTRLSRPCQTQKPQKPWWEDEWEVPRETLKLVERLGAGQFGEVWMGYYNGHTKVAVKSLKQGSMSPDAFLAEANLMKQLQHQRLVRLYAVVTQEPIYIITEYMENGSLVDFLKTPSGIKLTINKLLDMAAQIAEGMAFIEERNYIHRDLRAANILVSDTLSCKIADFGLARLIEDNEYTAREGAKFPIKWTAPEAINYGTFTIKSDVWSFGILLTEIVTHGRIPYPGMTNPEVIQNLERGYRMVRPDNCPEELYQLMRLCWKERPEDRPTFDYLRSVLEDFFTATEGQYQPQP
With B1 the Signal to Noise Ratio with BRB1 Peptide (TR-FRET kinase assay; kinase 0.5 nM) was 12.3.

B2: INSR (protein)
chain: RKRQPDGPLGPLYASSNPEYLSASDVFPCSVYVPDEWEVSREKITLLRELGQGSFGMVYEGNARDIIKGEAETRVAVKTVNESASLRERIEFLNEASVMKGFTCHHVVRLLGVVSKGQPTLVVMELMAHGDLKSYLRSLRPEAENNPGRPPPTLQEMIQMAAEIADGMAYLNAKKFVHRDLAARNCMVAHDFTVKIGDFGMTRDIYETDYYRKGGKGLLPVRWMAPESLKDGVFTTSSDMWSFGVVLWEITSLAEQPYQGLSNEQVLKFVMDGGYLDQPDNCPERVTDLMRMCWQFNPKMRPTFLEIVNLLKDDLHPSFPEVSFFHSEENKAPESEELEMEFEDMENVPLDRSSHCQREEAGGRDGGSSLGFKRSYEEHIPYTHMNGGKKNGRILTLPRSNPS
B2 gave a Signal to Noise ratio with BRB1 Peptide (TR-FRET kinase assay; kinase 20 nM) of 4.
